This series deals with mammary tumor cells from the 13762 tumor cell line. The settings on record: single dose of 100 mg DZ equivalent/rat, i.v.; breast tumor-bearing rat; FIG. 7.

As for “Ethylenedicysteine-Oligosaccharide-Diatrizoate [EC-OS-DZ]”, the “uptake on x-ray compared to contrast media (DZ)” value is listed as “sustained uptake”.

The record behind these values is patent US8147805B2, “Conjugates for dual imaging and radiochemotherapy: composition, manufacturing, and applications” (priority 2005, dated 2012).
